# Apparent affinities of Ab-14 variants for a coronavirus HR2 peptide

Antigen: PDVDLGDISGINAS, a 14-residue peptide of the SARS-CoV-2 spike HR2 region.

Ab-14 is the parent antibody, in scFv form: VH, then the linker GGGGSGGGGSGGGGS, then VL. The heavy chain is unchanged in all variants.
VH: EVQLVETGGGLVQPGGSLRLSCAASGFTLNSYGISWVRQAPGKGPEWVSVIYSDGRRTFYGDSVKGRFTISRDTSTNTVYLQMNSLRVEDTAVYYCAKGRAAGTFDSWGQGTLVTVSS
VL: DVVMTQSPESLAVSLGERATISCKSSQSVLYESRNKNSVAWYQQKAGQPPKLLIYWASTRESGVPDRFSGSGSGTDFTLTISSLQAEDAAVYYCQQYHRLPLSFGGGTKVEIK

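The parent was found by panning a naive human phage display library on the peptide. Library AAYL50 holds single substitutions and randomly drawn double and triple substitutions in the CDRs. AlphaSeq pools MATa yeast showing the antibodies with MATalpha yeast showing the peptide. The frequency of each diploid, read from paired DNA barcodes, reflects how well the two displayed proteins bind. The ratio of observed to expected reads was calibrated, replicate by replicate, on BCL2-family standards whose Kd was known from biolayer interferometry. The assay was run in three technical replicates.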

Variants are written as CDR1, CDR2 and CDR3 of the light chain (limits as in the source). Parent: KSSQSVLYESRNKNSVA, WASTRES, QQYHRLPLS.
This list gathers variants with a substitution at N37 (VL, numbered from residue 1).
Values are log10 of the apparent Kd in nM; lower means stronger binding.
Averages over replicates are reported, and they cover detected replicates only.
A pair that was not seen in that replicate is written "nd"; this usually means weak binding, but a binder can also be missed.
Three control strains display no target. For library AAYL50, 18% of the pairings with them gave a signal, with a median of 4.19 and one signal in twenty below 2.99, so weak values seen in few replicates may be background. For each scFv, signals with the empty controls are counted beside the result.

Variant KSSQSVLYRSRNKSSTA, WASTRES, QQYHRLPLS gave nd, nd, nd (controls 0 of 9).
Variant KSSQSVLRESRNKCSVA, WASTRES, QQYHRLPLR gave nd, nd, nd (controls 0 of 9).
Variant KSSQSVLYESRNKASVA, WASTRES, QDYHELPLS gave nd, 3.13, 2.68 (mean 2.91; controls 1 of 9).
Variant KSSQRVLYESRNKYSVA, WASTRES, QQYFRLPLS gave 1.86, 1.82, 1.52 (mean 1.74; controls 1 of 9).
Variant KSSQSVLYESRNPFSVA, WASTRES, QQQHRLPLS gave nd, nd, nd (controls 0 of 9).
Variant KSSQSVLYNSRNKSSVG, WASTRES, QQYHRLPLS gave 4.45, 3.89, nd (mean 4.17; controls 4 of 9).
Variant KSSQSVLGESRNKMSVA, WASTRES, QQYHRLPLS gave 0.65, 0.88, 0.81 (mean 0.78; controls 4 of 9).
Variant KSSQSVLYESRNKCSVA, WASTRES, QQWHRLPLS gave nd, nd, nd (controls 2 of 9).
Variant KSSQSVTYESRNKYSVA, WASTRES, QQYCRLPLS gave 1.45, 1.69, 1.51 (mean 1.55; controls 1 of 9).
Variant KSSQSVLYEMRNKKSVA, WASTRES, QQYHRLPLS gave 0.93, 1.96, 2.64 (mean 1.84; controls 0 of 9).
Variant KSSQSVLYESRGKPSVA, WASTRES, QQYHRLALS gave 2.97, 2.94, 2.64 (mean 2.85; controls 0 of 9).
Variant KSSSSVMYESRNKMSVA, WASTRES, QQYHRLPLS gave nd, 3.46, nd (controls 0 of 9).
Variant KSSQSVLYESRNKGSVA, WASTREI, QQYHRLSLS gave 2.42, 2.68, 3.64 (mean 2.91; controls 1 of 9).
Variant KSSQSVLYESRNKDSVA, WASTRES, QQLHRLLLS gave nd, nd, nd (controls 0 of 9).
Variant KSSQLVLYESRCKGSVA, WASTRES, QQYHRLPLS gave nd, nd, nd (controls 0 of 9).
Variant KSSQSVLYESRQKTSVA, WASTRES, QQYHRLWLS gave 2.03, 2.57, 1.96 (mean 2.19; controls 1 of 9).
Variant KSSMSVLYESRNKDSVA, WASTRES, QQYYRLPLS gave 0.59, 0.90, 0.75 (mean 0.75; controls 1 of 9).
Variant KSSQSVLYESRNKFSVA, WASTRNS, WQYHRLPLS gave 4.95, 4.30, 5.87 (mean 5.04; controls 5 of 9).
Variant KSSQSVLYESRNKLSVA, WASTRES, QQYHRLPLS gave 2.19, 1.98, 2.02 (mean 2.06; controls 5 of 9).
Variant KSSQSVLYESRNKLSVA, VASTRES, QQYHRLPNS gave nd, nd, nd (controls 0 of 9).
Variant KSSQSVLYESRNKRSVA, WASTREQ, QQYHRLWLS gave nd, 3.81, nd (controls 0 of 9).
Variant KSSVSVLYESRNKDSVA, WASTREF, QQYHRLPLS gave nd, nd, nd (controls 0 of 9).
Variant KSSQSWLYESRNKGSVA, WASTRES, QQYHRLPLS gave 1.23, 1.07, 1.72 (mean 1.34; controls 0 of 9).
Variant KSSQSVLYESRNKQSVA, WASTRES, QQYHRLPLS gave 1.57, 1.47, 1.74 (mean 1.59; controls 5 of 9).
Variant KSSQAVLHESRNKISVA, WASTRES, QQYHRLPLS gave 3.43, 2.18, 2.05 (mean 2.55; controls 0 of 9).
Variant KSSQSFDYESRNKKSVA, WASTRES, QQYHRLPLS gave 1.05, 1.24, 1.26 (mean 1.18; controls 2 of 9).
Variant KSSQSVLYESRNFHSVA, WASTRES, QQYHRLPHS gave 1.05, 1.38, 1.27 (mean 1.23; controls 4 of 9).
Variant KSSQSVLYESRNKWSVA, WASTRES, QQYHVLPLS gave 2.87, 3.22, 3.53 (mean 3.21; controls 4 of 9).
Variant KHSQSVLYESRNKDSVA, WATTRES, QQYHRLPLS gave 1.25, 1.35, 1.43 (mean 1.34; controls 1 of 9).
Variant KSSQSVLYESRNKISSA, WASTRES, QQYHRLPLS gave nd, nd, nd (controls 0 of 9).
Variant KSSSSVLYESRNKTSVY, WASTRES, QQYHRLPLS gave nd, nd, nd (controls 1 of 9).
Variant KSSQVVLYETRNKMSVA, WASTRES, QQYHRLPLS gave 2.50, 2.54, 2.86 (mean 2.63; controls 2 of 9).
Variant KSSQSVLYESRNKQSVP, WASTRES, QQYVRLPLS gave nd, 4.06, 5.04 (mean 4.55; controls 3 of 9).
Variant KSSQSVLYESRNKCSVA, WASTRES, DQYHRLPLP gave 3.06, 3.98, nd (mean 3.52; controls 0 of 9).
Variant KSSQSVLYESRNVKSVA, WASTRES, QQYHRLPLS gave 0.84, 0.96, 0.99 (mean 0.93; controls 1 of 9).
Variant ISSQSVPYESRNKHSVA, WASTRES, QQYHRLPLS gave 1.47, 1.78, 1.84 (mean 1.70; controls 1 of 9).
Variant KSSQSVLYESRNKMSSA, WASVRES, QQYHRLPLS gave nd, 3.98, nd (controls 1 of 9).
Variant KSSQSVLYESRNFFSVA, WASTRES, QIYHRLPLS gave 4.02, 3.33, nd (mean 3.67; controls 0 of 9).
Variant KSSQSVLYESRNKISVA, WASTRES, QQYHRLPLS gave 2.14, 2.53, 2.31 (mean 2.33; controls 2 of 9).
Variant KSSQSVLYESRNKYSVA, WASTRES, QQLHRLQLS gave nd, nd, nd (controls 1 of 9).
Variant KSSQSVLYESRNKQSVA, WISDRES, QQYHRLPLS gave 6.43, 4.42, 5.99 (mean 5.61; controls 5 of 9).
Variant KSSQSPLYESRNKGSVA, WASTRLS, QQYHRLPLS gave nd, nd, nd (controls 1 of 9).
Variant KSSQSVKYESRNKISVA, WASTRES, QQYHRLPPS gave nd, nd, nd (controls 3 of 9).
Variant KSSQSVLIESRNKESVA, WASTRHS, QQYHRLPLS gave nd, nd, nd (controls 0 of 9).
Variant KSSQSVLYESRNKISVA, WASTRES, FQYHTLPLS gave nd, nd, nd (controls 0 of 9).
Variant KSSQCVLYESRNGKSVA, WASTRES, QQYHRLPLS gave 4.03, nd, nd (controls 2 of 9).
Variant KSSQSVLYESRNKGGVM, WASTRES, QQYHRLPLS gave 4.42, nd, 5.36 (mean 4.89; controls 3 of 9).

For reference, 5 entries of the list once more:

{"CDR-L1": "KSSQSVLYESRNKFSVA", "CDR-L2": "WASTRNS", "CDR-L3": "WQYHRLPLS", "replicates, log10 nM": "4.95, 4.30, 5.87", "mean, log10 nM": "5.04", "control signals": "5/9"}
{"CDR-L1": "KSSQSVLYESRNKCSVA", "CDR-L2": "WASTRES", "CDR-L3": "DQYHRLPLP", "replicates, log10 nM": "3.06, 3.98, nd", "mean, log10 nM": "3.52", "control signals": "0/9"}
{"CDR-L1": "KSSQSVLYESRNKGGVM", "CDR-L2": "WASTRES", "CDR-L3": "QQYHRLPLS", "replicates, log10 nM": "4.42, nd, 5.36", "mean, log10 nM": "4.89", "control signals": "3/9"}
{"CDR-L1": "KSSQSVLYESRNKASVA", "CDR-L2": "WASTRES", "CDR-L3": "QDYHELPLS", "replicates, log10 nM": "nd, 3.13, 2.68", "mean, log10 nM": "2.91", "control signals": "1/9"}
{"CDR-L1": "KSSQSVLYESRNKLSVA", "CDR-L2": "VASTRES", "CDR-L3": "QQYHRLPNS", "replicates, log10 nM": "nd, nd, nd", "mean, log10 nM": "nd", "control signals": "0/9"}

From the AlphaSeq antibody data of Engelhart et al. 2022 (doi:10.1038/s41597-022-01779-4), copy in the FLAb collection.